Reference: US20210188930A1 (priority 2018, published 2021)

System: NCI60 cell lines
Experiment: NCI60 cell panel sensitivity profile (retrieved by CellMiner)
Format: cell-based, human
Settings: Struc. / WT / Null / Others

## potassium arsenite
  selectivity among NCI60 cell lines by p53 status (G150), in words: selectively inhibit structural hotspot mp53s expressing NCI60 cell lines
